Target: human PAC1 receptor with 3 hemagglutinin (HA) tags, expressed in Chinese Hamster Ovary (CHO) cells (human), P41586
Test: cell-based or functional assay

Protein sequences, listed by entry. Tags and fused reporters are not part of them. Chains listed by the source or under a name are the forms on record and can include a tag or linker. Residues count along the entry.
human PAC1 receptor with 3 hemagglutinin (HA) tags, expressed in Chinese Hamster Ovary (CHO) cells (human), P41586, UniProt P41586, 21-468: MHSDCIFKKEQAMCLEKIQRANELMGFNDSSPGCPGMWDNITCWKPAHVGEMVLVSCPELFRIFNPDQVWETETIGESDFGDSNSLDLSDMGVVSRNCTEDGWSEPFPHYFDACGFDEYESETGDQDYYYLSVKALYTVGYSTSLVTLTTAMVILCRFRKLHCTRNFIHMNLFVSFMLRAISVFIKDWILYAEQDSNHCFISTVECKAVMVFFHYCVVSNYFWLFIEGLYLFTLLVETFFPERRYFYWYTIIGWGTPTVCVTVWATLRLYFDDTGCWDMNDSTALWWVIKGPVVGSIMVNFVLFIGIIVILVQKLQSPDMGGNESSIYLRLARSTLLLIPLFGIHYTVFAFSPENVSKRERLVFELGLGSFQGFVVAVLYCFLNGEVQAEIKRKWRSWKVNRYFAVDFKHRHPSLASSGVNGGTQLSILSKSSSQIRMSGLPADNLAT

B1: PACAP1-27-S-G (peptide)
peptide: HSDGIFTDSYSRYRKQMAVKKYLAAVS
modifications: here or on the partner: Ser 27 O-β-D-Glc (replaces Leucine 27); C-terminal amide
With B1 the EC50 (nM), calcium flux (FLIPR), agonist mode, PAC1-CHO cells was 5.68 nM and the EMax (%), calcium flux (FLIPR), agonist mode, PAC1-CHO cells was 102%.

Reference: patent publication US20200270318A1
